Tests used:
O=C(O)[C@@H]1CCCN1 = assay: purified protein, by the assay type; details: other: L>D conversion, 0.125 μM enzyme, pH 6.0, 37° C.
D-AAO = target: T1, D-AAO (Sus scrofa, UniProt P00371); assay: D-AAO/HRP microplate test for detection of D-amino acids; assay type: biochemical, swine; details: 0.05 mM
T1 construct: purchased Sigma A-5222; host or cells: swine kidney
Procedure: • (3) Prepare a mixture containing the enzymes (D-AAO/HRP Mix), as follows: The amounts are given for one well, provided that the final volume will be 100 μl with the racemase products or the substrate:
This mixture is kept in the ice until use. • (4) The quantitation reaction starts when 13 μl of D-AAO/HRP mix is added to the reaction well. • (5) The microplate is covered with an adhesive coverlid and it is left in the dark at 37° C. between […] and 2 hours. The reaction can be monitored by eye whenever a color gradient matches the D-amino acid concentration of the standard dilutions. • (6) The microplate is read with a microplate spectrophotometer using a filter of at 490 nm.
The D-AAO/HRP test described here above can also be used for this purpose with slight modifications. For that purpose, the racemase reaction step should be skipped and the microplate test should start straightforward at the II-1-2.1-2 step described above with the following remarks:
1) Standard: It should not be an equimolar mixture of D- and L-amino acid, but rather a serial dilution of D-Amino acids. The choice of amino acid is made according to the interest of the D-amino acid under investigation. The final volume in wells should be of 87 μl.
2) Negative control: It is made with the L-enantiomer of the D-amino acid under investigation. The final volume should be 87 μl.
3) Blank: It is made with 87 μl buffer*. […]

By UniProt entry, the sequences of proteins in these tests, tags left out. Where a name states a change or a piece, a line headed by the entry shows the natural chain unless it says otherwise.
UniProt P00371: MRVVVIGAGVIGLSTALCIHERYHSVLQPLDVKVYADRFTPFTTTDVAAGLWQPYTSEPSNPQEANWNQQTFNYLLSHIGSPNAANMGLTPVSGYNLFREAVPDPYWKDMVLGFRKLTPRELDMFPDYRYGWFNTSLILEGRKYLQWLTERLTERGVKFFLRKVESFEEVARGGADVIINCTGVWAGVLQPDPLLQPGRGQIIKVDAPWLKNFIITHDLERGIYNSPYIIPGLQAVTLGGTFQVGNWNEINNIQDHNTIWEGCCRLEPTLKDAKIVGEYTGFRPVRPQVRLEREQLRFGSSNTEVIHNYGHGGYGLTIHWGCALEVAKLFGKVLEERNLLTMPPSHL

Optical density at 490 nm (D-AAO)	Compound	Km (O=C(O)[C@@H]1CCCN1)	Vmax (O=C(O)[C@@H]1CCCN1)
–	rTcPRACB (Trypanosoma cruzi strain CL Brener)	75 mM	0.0002 mol/s
0.159	O=C(O)[C@H]1CCCN1 [D-pro, D-proline]	–	–
–	rTcPRACA (Trypanosoma cruzi strain CL Brener)	29 mM	5.3e-05 mol/s

— US7556939B2, “Identification and characterization of racemases, definition of protein signatures, and a test for detecting D-amino acid and for screening molecules capable of inhibiting the activity of racemase, especially proline racemase” (Institut Pasteur, priority 2003, dated 2009)
